Experimental findings from ChEMBL document CHEMBL4052757, “Bistacrines as potential antitrypanosomal agents” (Bioorg Med Chem, 2017) are described below.

The test system of this assay is J774.1. The assay is described as follows: Cytotoxicity against mouse J774.1 cells after 24 hrs by alamar blue assay. The assay is classed as cell-based. In general terms: Resazurin is reduced to fluorescent resorufin, in cell work by metabolically active cells.

One may read the IC50 as the concentration needed to halve the response being measured. Lower therefore signals greater potency.

On to `c1ccc2c(NCCCCNc3c4c(nc5ccccc35)CCCC4)c3c(nc2c1)CCCC3`, for which the IC50 is 8.3 µM.
The compound `c1ccc2c(NCCCCCCCCCNc3c4c(nc5ccccc35)CCCC4)c3c(nc2c1)CCCC3` returned an IC50 of 1.8 µM. Against the preceding compound, the IC50 is about 4.6-fold lower.
As to `c1ccc2c(NCCCNc3c4c(nc5ccccc35)CCCC4)c3c(nc2c1)CCCC3`, half-maximal inhibition (IC50) required 42.6 µM.
Compound `c1ccc2c(NCCNc3c4c(nc5ccccc35)CCCC4)c3c(nc2c1)CCCC3` came in with a half-inhibitory concentration (IC50) of 45.2 µM.
